Apparent affinities of Ab-14 variants for a coronavirus HR2 peptide

Antigen: PDVDLGDISGINAS, a 14-residue peptide of the SARS-CoV-2 spike HR2 region.

Ab-14 is the parent antibody, in scFv form: VH, then three GGGGS repeats, then VL. The heavy chain is unchanged in all variants.
VH: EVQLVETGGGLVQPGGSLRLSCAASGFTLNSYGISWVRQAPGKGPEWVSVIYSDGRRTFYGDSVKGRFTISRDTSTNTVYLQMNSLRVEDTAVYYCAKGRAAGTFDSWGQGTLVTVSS
VL: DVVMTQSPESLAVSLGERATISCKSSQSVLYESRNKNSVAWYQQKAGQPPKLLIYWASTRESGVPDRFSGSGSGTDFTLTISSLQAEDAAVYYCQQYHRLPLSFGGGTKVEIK

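The starting antibody came from a phage panning campaign against this peptide. These sequences belong to a second round, designed from the earlier measurements on random variants of the parent. Several design methods are mixed in this list. The scFvs were displayed on barcoded MATa yeast, the peptide on MATalpha yeast. After mating in shaken culture at 30 °C for 16 h, diploids were selected and their barcode pairs sequenced. A regression on co-assayed BCL2-family reference pairs converts the normalised counts of each replicate to an apparent Kd. Mating was done six times.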

Each variant is given by its three light chain CDRs, as the data file delimits them; those of the parent are KSSQSVLYESRNKNSVA, WASTRES, QQYHRLPLS.
Values are log10 of the apparent Kd in nM; lower means stronger binding.
Where no diploid with the target was found in that replicate, the entry reads "n.d.": below detection, most likely a poor binder, though not proof of it.
As a blank, each scFv also met three strains without target: over all light chain designs, 4% of these pairings were detected, typically at 2.64 and seldom below 1.59. For each scFv, signals with the empty controls are counted beside the result, with their mean in brackets.
The range of this assay differs from that of the first round, and the authors advise against merging the two.
The authors averaged sequences with at least three values out of six and counted those with two or fewer as poor binders.
The parent sequence was in this pool as ten entries: three were never detected, three once, and four in most replicates, with averages from 0.34 to 2.37.

| CDR-L1 | CDR-L2 | CDR-L3 | log10 Kd (nM) by replicate | empty controls |
|---|---|---|---|---|
| KVYPSQLYESRNKNSVA | QASTRES | QQYHRLPLS | 0.27 / -0.18 / -0.04 / -0.13 / -0.21 / -0.13 | 1 of 18 (2.78) |
| QLSMMTGHMSVSKNNVA | EMETRMN | QQYDRLPLS | 1.09 / 1.22 / 1.15 / 0.93 / 1.65 / 1.25 | 2 of 18 (2.77) |
| TIGPMLMTESRNKNSVA | GMQTRER | QQYHRLPLS | n.d. / n.d. / n.d. / n.d. / n.d. / n.d. | 0 of 18 |
| TITEFMGNLSQNRNSVA | DTSTSGD | QSYDRLPLS | 2.96 / 3.54 / n.d. / n.d. / 3.29 / 2.68 | 1 of 18 (3.07) |
| TLYGLMLSMSKNKNSVA | EMTTREK | QQYDRLPLI | n.d. / n.d. / 2.62 / 2.21 / n.d. / 2.71 | 1 of 18 (2.22) |
| KLGDMVHTEVRNKNSIA | DMRTREQ | QQYYRLPLS | -0.23 / -0.23 / -0.24 / -0.40 / -0.63 / 0.05 | 0 of 18 |
| SLGLVTMLEYAGRNNVA | NNSTREK | QQYDRLPLS | 2.16 / 1.51 / 1.67 / 1.61 / 1.30 / 1.85 | 0 of 18 |
| NFGQKMALYTGDRYSIA | DHTVRAD | QQYSRLPLT | 0.46 / 0.42 / 0.49 / 0.70 / 0.59 / 0.37 | 0 of 18 |
| KISGMYQKESKNKNSVA | EMVNREV | QQYDRLPLS | 1.13 / 1.46 / 1.07 / 1.15 / 1.25 / 1.22 | 5 of 18 (2.51) |
| MVSQLMLWGHLAKNSIA | EAEHRAN | QQYDRLPLF | 2.02 / 0.85 / 1.15 / 1.18 / 1.22 / 0.99 | 2 of 18 (2.77) |
| KISQSVLYESANKNSVA | WASTRES | QQYHHLPLS | 1.53 / 1.23 / 1.70 / 1.28 / 1.51 / 1.91 | 0 of 18 |
| TLALRTSYGNGLNKAIA | DVSARSY | QQYARLPLL | 2.06 / 1.15 / 1.58 / 1.42 / 2.43 / 2.39 | 0 of 18 |
| KAVQSWLYESRNKNSVA | GASTRES | QQYHRLPLS | -0.13 / -0.11 / -0.29 / -0.08 / -0.27 / 0.09 | 1 of 18 (2.04) |
| TLTQVTGMESHNKNSVA | DLSTRGS | QQYHRLPLS | 0.51 / 0.60 / 0.63 / 0.62 / 0.49 / 0.60 | 1 of 18 (2.56) |
| KTPQGVLYESRNKNSVA | GASTRES | QQYHRLPLS | 0.21 / 0.19 / -0.03 / 0.07 / 0.29 / 0.26 | 1 of 18 (3.03) |
| HMRHEFYGYDNYDKAVA | HANQRLN | QQYSRLPFS | 0.81 / 1.25 / 1.09 / 0.92 / 0.86 / 1.02 | 2 of 18 (3.61) |
| HISESVFAQSKMKNSVA | ENSTRES | QQYDRLPLS | 1.94 / 1.67 / 1.22 / 1.36 / 1.31 / 1.62 | 3 of 18 (2.81) |
| KVSMQQLYSSRNKNSVA | DANTRES | QQYHRLPLS | 0.32 / -0.19 / -0.20 / -0.40 / 0.06 / -0.09 | 0 of 18 |
| KLSQSVLMESRNKNSVA | EASTRLS | QQYHRLPLS | 0.02 / -0.38 / -0.41 / -0.49 / -0.49 / -0.48 | 0 of 18 |
| KIGATLNTLMHTKNNVA | DLVTREN | QQYHRLPLS | 0.33 / 0.15 / -0.09 / -0.02 / 0.21 / 0.22 | 0 of 18 |
| KSCQSVLYESRNKNSVA | WASTRAD | QQYHRLPLS | 0.54 / 0.82 / 1.36 / 0.89 / 0.21 / 0.85 | 1 of 18 (2.68) |
| KLSPSVNGESRNKNSVA | EASTREQ | QDYHRLPLS | 0.73 / 0.52 / 0.27 / 0.44 / 0.50 / 0.76 | 0 of 18 |
| NISIKEPGNWKMMDSVA | HSSLRAE | QQYWRLPLM | 0.32 / 1.17 / 0.67 / 1.24 / 0.59 / 1.51 | 0 of 18 |
| KHSQAFLYESRNKNSVA | DANTRES | QQYHRLPLS | 0.40 / 0.56 / 0.16 / -0.10 / 0.47 / 0.53 | 0 of 18 |
| KFQQSQLYESRMKNSVA | NASKRMS | QQYHRLPLK | 1.02 / 1.18 / 1.16 / 0.88 / 1.23 / 1.04 | 2 of 18 (3.52) |
| KISQSVLDESSNKNSVA | WADTRES | QQYHRLPLS | 0.56 / 0.41 / 0.82 / 0.13 / 0.53 / 0.71 | 2 of 18 (3.41) |
| KSSGGVLYESRNKNSVA | WASTRES | QQCHRLPLS | n.d. / 2.60 / 2.08 / 2.76 / 2.57 / n.d. | 1 of 18 (1.85) |
| KSSISGLYESRMKNSVA | EASTREV | QQYHRLPLS | 1.71 / 1.54 / 1.12 / 1.16 / 1.18 / 1.43 | 0 of 18 |
| KSSQSVLYEHRNKNSVA | WASTRES | QQYGRLPLS | n.d. / 1.64 / 1.06 / n.d. / n.d. / 1.72 | 0 of 18 |
| KISMLINMTFEQSNNVA | EMVTRYK | QQYNRLPLS | 2.12 / 1.94 / 2.41 / 2.11 / 2.03 / 2.32 | 0 of 18 |
| KSSQSQLYESRNKNSVA | FASTRES | QQYHRLPLS | n.d. / n.d. / 2.38 / 1.50 / 1.40 / 1.70 | 0 of 18 |

Values reported by Li et al. 2023, doi:10.1038/s41467-023-39022-2 (FLAb copy).